Among the data in US8772480B2, “Inhibitors of PI3 kinase and/or mTOR” (priority 2009, dated 2014) are IC50 values, retold here.

A value given as a limit tells only on which side of the number the result lay.

The assay deals with mammalian target of rapamycin (mTOR) (Homo sapiens (Human), UniProt P42345). Conditions: read-out: mTOR IC50.
For the compound `Cc1nc(-c2cccnc2Nc2ccc(NC(=O)C3CC3)cc2)c2nc[nH]c2n1` [Example 182, N-(4-(3-(2-Methyl-9H-Purin-6-yl)Pyridin-2-Ylamino)Phenyl)Cyclopropanecarboxamide], the 50% inhibitory concentration (IC50) amounted to 0.05 µM.

In the case of `COc1ncc(Nc2ncc(C(C)O)cc2-c2nc(C)nc(N)n2)cc1F` (stereo not drawn) [Example 349, 1-(5-(4-Amino-6-Methyl-1,3,5-Triazin-2-yl)-6-(5-Fluoro-6-Methoxypyridin-3-Ylamino)Pyridin-3-yl)Ethanol], the IC50 is > 10 µM.

On to `COc1ccc(Nc2ncc(CNc3ccccn3)cc2-c2nc(C)nc3[nH]cnc23)cn1` [Example 82, N-(6-methoxypyridin-3-yl)-3-(2-methyl-9H-purin-6-yl)-5-((pyridin-2-ylamino)methyl)pyridin-2-amine], for which the 50% inhibitory concentration (IC50) is > 10 µM.

In the case of `Cc1nc(N)nc(-c2cc(CN3CCN(S(C)(=O)=O)CC3)cnc2Nc2cc(F)cc3[nH]ncc23)n1` [Example 245, N-(3-(4-Amino-6-Methyl-1,3,5-Triazin-2-yl)-5-((4-(Methylsulfonyl)Piperazin-1-yl)Methyl)Pyridin-2-yl)-6-Fluoro-1H-Indazol-4-Amine], the IC50 is > 10 µM.

For `COc1ccc(Nc2ncc([C@@H](O)C(F)(F)F)cc2-c2nc(C)nc(N)n2)cn1.COc1ccc(Nc2ncc([C@H](O)C(F)(F)F)cc2-c2nc(C)nc(N)n2)cn1` (racemic) [Example 269, (R,S)-1-(5-(4-Amino-6-Methyl-1,3,5-Triazin-2-yl)-6-(6-Methoxypyridin-3-Ylamino)Pyridin-3-yl)-2,2,2-Trifluoroethanol], the concentration for half-maximal inhibition (IC50) is 0.581 µM.

As to `COc1ccc(Nc2ncc(CN3CCCC3)cc2-c2nc(C)nc(N)n2)cn1` [Example 221, 4-(2-(6-Methoxypyridin-3-Ylamino)-5-(Pyrrolidin-1-Ylmethyl)Pyridin-3-yl)-6-Methyl-1,3,5-Triazin-2-Amine], the IC50 was > 10 µM.

For the compound `COc1ccc(Nc2ncc(CN3CCN(S(=O)(=O)N(C)C)CC3)cc2-c2nc(C)nc3[nH]cnc23)cn1` [Example 88, 4-((6-(6-Methoxypyridin-3-Ylamino)-5-(2-Methyl-9H-Purin-6-yl)Pyridin-3-yl)Methyl)-N,N-Dimethylpiperazine-1-Sulfonamide], the IC50 is > 10 µM.

Regarding `COc1ccc(Nc2ncc(-c3cnn(C)c3)cc2-c2nc(C)nc(N)n2)cn1` [Example 247, 4-(2-(6-Methoxypyridin-3-Ylamino)-5-(1-Methyl-1H-Pyrazol-4-yl)Pyridin-3-yl)-6-Methyl-1,3,5-Triazin-2-Amine], the IC50 is > 10 µM.

For the compound `CC(=O)Nc1ccc(Nc2ncc(Cc3ccc(S(C)(=O)=O)cc3)cc2-c2nc(C)nc3[nH]cnc23)cn1` [Example 105, N-(5-(3-(2-methyl-9H-purin-6-yl)-5-(4-(methylsulfonyl)benzyl)pyridin-2-ylamino)pyridin-2-yl)acetamide], the IC50 is 0.27 µM.

Take `Cc1nc(-c2cccnc2Nc2cccc3[nH]ncc23)c2nc[nH]c2n1` [Example 57, N-(3-(2-methyl-9H-purin-6-yl)pyridin-2-yl)-1H-indazol-4-amine]: the IC50 is 0.534 µM.

`Cc1nc(-c2cc(C(C)N3CCOCC3)cnc2Nc2cnc(Cl)c(NS(C)(=O)=O)c2)c2nc[nH]c2n1` (stereo not drawn) [Example 339, N-(2-Chloro-5-(3-(2-Methyl-9H-Purin-6-yl)-5-(1-Morpholinoethyl)Pyridin-2-Ylamino)Pyridin-3-yl)Methanesulfonamide]: the IC50 came out at 0.046 µM.

Turning to `COc1ccc(Nc2ncc(C(C)(O)C(F)(F)F)cc2-c2nc(C)nc(N)n2)cn1` (stereo not drawn) [Example 320, 2-(5-(4-amino-6-methyl-1,3,5-triazin-2-yl)-6-(6-methoxypyridin-3-ylamino)pyridin-3-yl)-1,1,1-trifluoropropan-2-ol], the IC50 is 0.263 µM.

In the case of `Cc1nc(N)cc(-c2nc3ccccc3nc2Nc2cccc3[nH]ncc23)n1` [Example 180, 3-(6-Amino-2-Methylpyrimidin-4-yl)-N-(1H-Indazol-4-yl)Quinoxalin-2-Amine], the IC50 is > 10 µM.

As for `COc1ccc(Nc2ncc(CN3CC(N)C3)cc2-c2nc(C)nc(N)n2)cn1` [Example 231, 4-(5-((3-Aminoazetidin-1-yl)Methyl)-2-(6-Methoxypyridin-3-Ylamino)Pyridin-3-yl)-6-Methyl-1,3,5-Triazin-2-Amine], the IC50 is > 10 µM.

Regarding `COc1ccc(Nc2nc(N3CCOCC3)ncc2-c2nc(C)nc(N)n2)cn1` [Example 120, 4-(4-(6-methoxypyridin-3-ylamino)-2-morpholinopyrimidin-5-yl)-6-methyl-1,3,5-triazin-2-amine], the IC50 was > 10 µM.

With `COc1ncc(Nc2ncc(C(C)(C)N)cc2-c2nc(C)nc(N)n2)cc1F` [Example 278, 4-(5-(2-Aminopropan-2-yl)-2-(5-Fluoro-6-Methoxypyridin-3-Ylamino)Pyridin-3-yl)-6-Methyl-1,3,5-Triazin-2-Amine], the IC50 is > 10 µM.

As to `COc1ccc(Nc2nc(-c3cccnc3)ccc2-c2nc(C)nc(N)n2)cn1` [Example 254, 5-(4-Amino-6-Methyl-1,3,5-Triazin-2-yl)-N-(6-Methoxypyridin-3-yl)-2,3′-Bipyridin-6-Amine], the IC50 was > 10 µM.

Consider `COc1ccc(Nc2ncc(N3CC[C@H](CO)C3)cc2-c2nc(C)nc3[nH]cnc23)cn1` [Example 204, ((3S)-1-(6-((6-Methoxy-3-Pyridinyl)Amino)-5-(2-Methyl-9H-Purin-6-yl)-3-Pyridinyl)-3-Pyrrolidinyl)Methanol], for which the IC50 is > 10 µM.

On to `COc1ccc(Nc2nc(N3CCCC3)ncc2-c2nc(C)nc(N)n2)cn1` [Example 122, 4-(4-(6-methoxypyridin-3-ylamino)-2-(pyrrolidin-1-yl)pyrimidin-5-yl)-6-methyl-1,3,5-triazin-2-amine], for which the IC50 was > 10 µM.

In the case of `Cc1nc(N)nc(-c2cc(C(C)(C)O)cnc2Nc2cncc(F)c2)n1` [Example 352, 2-(5-(4-Amino-6-Methyl-1,3,5-Triazin-2-yl)-6-(5-Fluoropyridin-3-Ylamino)Pyridin-3-yl)Propan-2-ol], the IC50 was determined as 2.54 µM.

In the case of `Cc1nc(N)nc(-c2cccnc2Nc2ccc(NC(=O)Nc3cccc(F)c3)nc2)n1` [Example 191, 1-(5-(3-(4-Amino-6-Methyl-1,3,5-Triazin-2-yl)Pyridin-2-Ylamino)Pyridin-2-yl)-3-(3-Fluorophenyl)Urea], the IC50 was > 10 µM.

As to `COc1ncc(Nc2ncc([C@@H](C)N3CCOCC3)cc2-c2cc(N)nc(C)n2)cc1F` [Example 276, 6-(2-((5-Fluoro-6-Methoxy-3-Pyridinyl)Amino)-5-((1R)-1-(4-Morpholinyl)Ethyl)-3-Pyridinyl)-2-Methyl-4-Pyrimidinamine], the IC50 is > 10 µM.

`COc1ncc(Nc2ncc([C@@H](C)N3CCN(S(C)(=O)=O)C[C@@H]3C)cc2-c2nc(C)nc3[nH]cnc23)cc1F` [Example 295, N-(5-Fluoro-6-Methoxypyridin-3-yl)-5-((R)-1-((S)-2-Methyl-4-(Methylsulfonyl)Piperazin-1-yl)Ethyl)-3-(2-Methyl-9H-Purin-6-yl)Pyridin-2-Amine]: the IC50 was > 10 µM.

Consider `CCC(N)(CC)c1cnc(Nc2cnc(OC)c(F)c2)c(-c2nc(C)nc(N)n2)c1` [Example 301, 4-(5-(3-Aminopentan-3-yl)-2-(5-Fluoro-6-Methoxypyridin-3-Ylamino)Pyridin-3-yl)-6-Methyl-1,3,5-Triazin-2-Amine], for which the half-inhibitory concentration (IC50) is 4.88 µM.

Turning to `COc1ncc(Nc2ncc(C3CCOCC3)cc2-c2nc(C)nc(N)n2)cc1F` [Example 344, 4-(2-(5-Fluoro-6-Methoxypyridin-3-Ylamino)-5-(Tetrahydro-2H-Pyran-4-yl)Pyridin-3-yl)-6-Methyl-1,3,5-Triazin-2-Amine], the IC50 was > 10 µM.

Consider `COc1ncc(Nc2ncc(CN3CCOCC3)cc2-c2nc(C)nc(N)n2)cc1NS(C)(=O)=O` [Example 337, N-(5-(3-(4-Amino-6-Methyl-1,3,5-Triazin-2-yl)-5-(Morpholinomethyl)Pyridin-2-Ylamino)-2-Methoxypyridin-3-yl)Methanesulfonamide], for which the IC50 is > 10 µM.

On to `COc1ccc(Nc2ncc(N3CCN(S(C)(=O)=O)CC3)cc2-c2nc(C)nc3[nH]cnc23)cn1` [Example 99, N-(6-Methoxypyridin-3-yl)-3-(2-Methyl-9H-Purin-6-yl)-5-(4-(Methylsulfonyl)Piperazin-1-yl)Pyridin-2-Amine], for which the IC50 was determined as 0.186 µM.

Consider `COc1ccc(Nc2ncc(C(O)c3ccc(S(=O)(=O)N(C)C)cc3)cc2-c2nc(C)nc(N)n2)cn1` (stereo not drawn) [Example 236, 4-((5-(4-Amino-6-Methyl-1,3,5-Triazin-2-yl)-6-(6-Methoxypyridin-3-Ylamino)Pyridin-3-yl)(Hydroxy)Methyl)-N,N-Dimethylbenzenesulfonamide], for which the IC50 is 4.77 µM.

On to `CCS(=O)(=O)c1cnc(Nc2cnc(OC)c(F)c2)c(-c2nc(C)nc(N)n2)c1` [Example 303, 4-(5-(ethylsulfonyl)-2-(5-fluoro-6-methoxypyridin-3-ylamino)pyridin-3-yl)-6-methyl-1,3,5-triazin-2-amine], for which the IC50 was > 10 µM.

Turning to `COc1ncc(Nc2ncc(Cc3ccc(S(C)(=O)=O)cc3)cc2-c2nc(C)nc(N)n2)cc1F` [Example 142, 4-(2-(5-fluoro-6-methoxypyridin-3-ylamino)-5-(4-(methylsulfonyl)benzyl)pyridin-3-yl)-6-methyl-1,3,5-triazin-2-amine], the IC50 was > 10 µM.

Turning to `COc1ccc(Nc2ncc(CN3CC(NS(C)(=O)=O)C3)cc2-c2nc(C)nc(N)n2)cn1` [Example 232, N-(1-((5-(4-Amino-6-Methyl-1,3,5-Triazin-2-yl)-6-(6-Methoxypyridin-3-Ylamino)Pyridin-3-yl)Methyl)Azetidin-3-yl)Methanesulfonamide], the IC50 was 3.74 µM.

As to `Cc1nc(N)nc(-c2cc(CN3CCOCC3)cnc2Nc2ccc3scnc3c2)n1` [Example 129, N-(3-(4-amino-6-methyl-1,3,5-triazin-2-yl)-5-(morpholinomethyl)pyridin-2-yl)benzo[d]thiazol-5-amine], the half-maximal inhibitory concentration (IC50) came to 1.34 µM.

Regarding `COc1ccc(Nc2ncc(CN3CCN(S(=O)(=O)N(C)C)CC3)cc2-c2nc(C)nc(N)n2)cn1` [Example 211, 4-((5-(4-Amino-6-Methyl-1,3,5-Triazin-2-yl)-6-((6-Methoxy-3-Pyridinyl)Amino)-3-Pyridinyl)Methyl)-N,N-Dimethyl-1-Piperazinesulfonamide], the IC50 is > 10 µM.

The term IC50 denotes the midpoint of a concentration-inhibition curve.
